Earlier results as cited in article PMC11446596 (Critical Care Explorations, 2024).

Settings: critically ill children; 20 kg, eGFR 141 mL/min/1.73 m^2; cited from earlier work

Q: Which “Clearance reported by Downes et al” value does the source give for `CN[C@H](CC(C)C)C(=O)N[C@H]1C(=O)N[C@@H](CC(N)=O)C(=O)N[C@H]2C(=O)N[C@H]3C(=O)N[C@H](C(=O)N[C@H](C(=O)O)c4cc(O)cc(O)c4-c4cc3ccc4O)[C@H](O)c3ccc(c(Cl)c3)Oc3cc2cc(c3O[C@@H]2O[C@H](CO)[C@@H](O)[C@H](O)[C@H]2O[C@H]2C[C@](C)(N)[C@H](O)[C@H](C)O2)Oc2ccc(cc2Cl)[C@H]1O` [vancomycin] here?
A: 2.64 L/h
